Experimental data published in patent publication US12545900B2, “CGAS/DNCV-like nucleotidyltransferases and uses thereof” (Dana-Farber Cancer Institute, Inc., priority 2018, dated 2026).

Target: T1, Mus musculus STING (Mus musculus, UniProt Q3TBT3)
T1 construct: 6xHis-SUMO2 (N, cleaved yes); made in house; host or cells: E. coli BL21 CodonPlus (DE3)-RIL
T1 sequence (Q3TBT3 138-378 limits assumed): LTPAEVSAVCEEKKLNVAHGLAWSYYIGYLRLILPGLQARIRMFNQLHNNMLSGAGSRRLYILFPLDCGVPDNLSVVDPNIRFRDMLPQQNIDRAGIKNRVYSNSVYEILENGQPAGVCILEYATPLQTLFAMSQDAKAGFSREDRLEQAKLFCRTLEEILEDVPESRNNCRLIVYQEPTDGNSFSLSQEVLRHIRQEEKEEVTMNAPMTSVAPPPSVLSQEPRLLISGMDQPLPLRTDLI
Test: Gel shift assay, radiolabeled nucleotide binding to STING (native PAGE)

Nc1nc2c(ncn2[C@@H]2O[C@@H]3COP(=O)(O)O[C@H]4[C@@H](O)[C@H](n5cnc6c(N)ncnc65)O[C@@H]4COP(=O)(O)O[C@@H]2[C@@H]3O)c(=O)[nH]1 [2′3′ cGAMP, 2′-5′/3′-5′ cyclic GMP-AMP]
recognition/binding of nucleotide by STING: detected by STING
